# Assay results from US20250215101A1, “DR5 Agonist and PLK1 Inhibitor or CDK Inhibitor Combination Therapy” (Inhibrx Biosciences, Inc., priority 2022, published 2025).
# Experiments:
# [1] = system: CAL-78, OUMS-27, SW1353, H-EMC-SS, SW620, HS-SY-II; assay: Cytotoxicity screens INBRX-109 + CDK9 or MCL-1 inhibitor, summary over the cell lines; format: cell-based; details: combination with INBRX-109
# From the text: Data was graphed in GraphPad Prism 9.
# [2] = system: CAL-78; assay: Cell viability (CellTiter-Glo) cytotoxicity assay, INBRX-109 x CDK9 or MCL-1 inhibitor matrix, 48 h, chondrosarcoma line
smiles,measurement,setting,value
CCc1cnn2c(NCc3ccc[n+]([O-])c3)cc(N3CCCC[C@H]3CCO)nc12 [Dinaciclib],cell killing by the combination,[1],increased cell killing on nearly every cancer cell line tested
same,Max Cytotox,[2]; dinaciclib + 1 nM INBRX-109,91.4%
same,Max Cytotox at 25 nM,[2]; dinaciclib only,47.1%
